The entries are a selection whose mix differs from that of the whole data set. Results filed as inconclusive are left out. Activity calls are given as the source filed them.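 The calls were made as follows: active = fitted activation curve crossing 40% at a concentration no higher than the sample's top valid tested dose; inconclusive = flat fitted curve at 30% to 70% activation, or poor curve fit; inactive = signal decrease, flat curve within 30%, or the rest.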

The values below come from PubChem BioAssay AID602296 (Broad Institute, 2012).

The nature of the test: sustained heat shock response element induction – cell-based, mouse, luciferase, cherry-pick, dose, confirmation (AID 602296).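 Also: test compounds applied by themselves with no MG132 co-treatment.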 The note with it: NIH3T3-HGL HSF-1 response element luciferase, 48 h; at 26 µM (top of the series).
For the compound `CP(=O)(OCCOc1ccccc1)OCCOc1ccccc1`, the activation is inactive: 8.7%.
